Assay results reported in US20110195433A1 (priority 2007, published 2011).
Some compounds may have been tested in ways that are not shown here.

Sequences of proteins named here, by UniProt entry; tags and fusion partners are left off.
UniProt P32300, whole entry: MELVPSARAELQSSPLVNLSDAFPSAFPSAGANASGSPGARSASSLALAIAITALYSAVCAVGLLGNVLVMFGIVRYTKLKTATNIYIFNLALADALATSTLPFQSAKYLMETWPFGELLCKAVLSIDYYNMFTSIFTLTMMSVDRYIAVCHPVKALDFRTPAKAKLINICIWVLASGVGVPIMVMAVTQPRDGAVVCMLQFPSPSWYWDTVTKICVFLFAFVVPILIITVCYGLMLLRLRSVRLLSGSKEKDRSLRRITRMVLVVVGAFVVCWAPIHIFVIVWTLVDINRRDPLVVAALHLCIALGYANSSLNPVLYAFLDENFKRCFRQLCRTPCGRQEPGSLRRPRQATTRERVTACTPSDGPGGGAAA

Molecular target: mouse DOR (Mus musculus, UniProt P32300)
Experiment: [[…] binding (saturation and competitive) in DOR membranes
Details: read-out: Kd of [3H]diprenorphine, saturation binding

In the case of [3H]diprenorphine, the Kd is reported as 0.44 nM.
